## Binding of CDR-mutated scFvs to a peptide of the spike HR2 region

Binding partner: SARS-CoV-2 spike HR2 peptide, sequence PDVDLGDISGINAS.

The variants keep the heavy chain, the linker and the frameworks of Ab-14 (scFv order VH, a (GGGGS)3 linker, VL).
VH: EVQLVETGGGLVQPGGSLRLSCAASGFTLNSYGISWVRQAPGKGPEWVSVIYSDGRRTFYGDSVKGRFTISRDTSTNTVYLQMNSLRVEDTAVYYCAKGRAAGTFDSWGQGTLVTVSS
VL: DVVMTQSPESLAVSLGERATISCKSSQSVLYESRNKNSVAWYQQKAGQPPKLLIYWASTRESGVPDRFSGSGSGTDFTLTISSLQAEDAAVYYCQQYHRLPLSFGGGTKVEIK

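The starting antibody came from a phage panning campaign against this peptide. The library (AAYL50) carries one to three amino acid substitutions per variant, with no insertions or deletions. In AlphaSeq, yeast of one mating type display the scFv and yeast of the other type display the target. The frequency of each diploid, read from paired DNA barcodes, reflects how well the two displayed proteins bind. Scores were corrected for input abundance and mapped to Kd with protein pairs of known affinity run in the same pool. There are three technical replicates.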

Positions count from residue 1 of the parent VL; N37S puts S in place of N. The Kd shown is the geometric mean over detected replicates; a lower Kd is a better binder. Where no diploid with the target was found in any replicate, the entry reads "nd": below detection, most likely a poor binder, though not proof of it.

changes	Kd (apparent)	replicates with signal	signal with controls
N37S/A57N	250 µM	2/3	3/9
K24T/S38V/T59F	nd	0/3	1/9
S33K/A57S/Y97E	1.9 µM	1/3	2/9
R34W/S58I/S62A	75 nM	3/3	0/9
Q27S/N35L/R99I	nd	0/3	1/9
Q27R/K36W/S103Y	8.9 µM	2/3	0/9
Y31K/N35Q/A57W	35 µM	2/3	7/9
Y97R/L100G	nd	0/3	2/9
S33K/R34K/N35L	160 nM	3/3	4/9
S26D/S33W/N37W	360 nM	3/3	0/9
S26D/R60M/L100I	7.2 µM	3/3	5/9
S25L/Y97M/H98N	24 µM	3/3	4/9
R34D/N35I	36 nM	3/3	0/9
N37Q/H98I/L102E	110 nM	3/3	3/9
Y31D/W56M/T59P	290 nM	1/3	0/9
Y31L/E32H/L100K	8.7 µM	1/3	3/9
L30K/K36Y/R99P	3.7 µM	1/3	1/9
W56S/R60F/L102C	nd	0/3	0/9
S28T/R34T/P101G	6.6 nM	3/3	1/9
V29N/E32C/S38P	nd	0/3	1/9
V29T/Y31D/E32T	94 nM	3/3	0/9
A57D/Y97A/L100M	45 nM	3/3	4/9
A57W/H98I/R99W	nd	0/3	1/9
E61H/S62C/Q95I	6.6 µM	1/3	1/9
V39D/Q96F/R99K	nd	0/3	0/9
Y31K/E32M/K36T	220 nM	3/3	2/9
S38E/A40N/Q95F	27 µM	2/3	4/9
L30P/R60T/S62Y	nd	0/3	0/9
S33R/E61H/R99H	nd	0/3	3/9
A40E/W56V/S62K	22 µM	1/3	1/9
Q27A/S28M/E61N	39 nM	3/3	1/9
Q27G/Y31D/Q96I	8.1 nM	3/3	2/9
A40E/R60Y	28 µM	2/3	4/9
Y31V/N35F/N37M	2.8 µM	2/3	1/9
S25D/A57I/Q95M	410 nM	1/3	2/9
S25M/T59K/S103C	1.7 nM	3/3	4/9
L30P/A57Y/R99G	nd	0/3	2/9
S26D/S62F/L100I	160 nM	3/3	1/9
N35M/R60F/Q96M	140 µM	3/3	4/9
Y31T/Y97V/H98V	21 nM	3/3	0/9
Y31V/R60T/Q95G	770 nM	3/3	2/9
T59D/Y97E/L100N	200 nM	3/3	0/9
S26I/N37P/A40I	14 µM	1/3	1/9
Y31H/Q95T	1.8 µM	3/3	7/9
S25R/S33F/K36S	nd	0/3	0/9
R34L/A57Q/L100C	11 µM	1/3	1/9
Y31T/K36R/S38I	nd	0/3	4/9
Y31F/N35T/V39H	nd	0/3	1/9
E32P/A40W/W56S	16 µM	2/3	5/9
S25N/V29C/V39M	17 µM	1/3	6/9
K24G/V39P/P101A	3.3 µM	2/3	5/9
S25M/S28P/R99K	2.4 nM	3/3	4/9
L30K/A57P	nd	0/3	0/9
K24W/R60S	nd	0/3	1/9
V29R/Y97F/L100R	nd	0/3	2/9
S33N/R99C/L102C	22 nM	3/3	3/9
T59S/Q96A/L102R	nd	0/3	0/9
R34D/N37D/W56P	nd	0/3	0/9
W56N/S58F/Q95F	58 µM	2/3	3/9
V39H/P101Y/L102V	nd	0/3	0/9
S33W/S38N/Y97A	31 nM	3/3	4/9
K36Q/Q95L/R99D	2.9 nM	3/3	1/9
S28Y/R60C/S62Y	5.1 µM	2/3	0/9
Q96W/L102Q/S103G	16 nM	3/3	0/9
K36V/Q96W/Y97K	380 nM	3/3	1/9
K24G/Y31Q/R60D	8.6 µM	2/3	2/9
S25P/A57C/R60Q	nd	0/3	1/9
L30E/Y97T/L100S	820 nM	3/3	3/9
S38L/V39N/S103G	nd	0/3	0/9
K24G/S25F/H98A	19 nM	3/3	5/9
R60Y/Q96T/S103G	nd	0/3	1/9
Q96N/P101F	35 µM	1/3	1/9
T59N/Y97R	46 µM	3/3	4/9
S25E/N37P/S103E	1.3 µM	1/3	0/9
K24F/L30Y/S62Y	27 nM	3/3	0/9
R60M/E61Y/S62W	34 µM	3/3	0/9
N35R/N37Y/H98M	190 nM	1/3	0/9
E32H/N35C/S38M	nd	0/3	0/9
S26E/S38V/E61Y	13 µM	1/3	1/9

9 of these entries, quoted again:

changes	Kd (apparent)	replicates with signal	signal with controls
Y31V/R60T/Q95G	770 nM	3/3	2/9
R60Y/Q96T/S103G	nd	0/3	1/9
K24G/Y31Q/R60D	8.6 µM	2/3	2/9
S25P/A57C/R60Q	nd	0/3	1/9
Y97R/L100G	nd	0/3	2/9
Y31L/E32H/L100K	8.7 µM	1/3	3/9
K24T/S38V/T59F	nd	0/3	1/9
S38E/A40N/Q95F	27 µM	2/3	4/9
V29T/Y31D/E32T	94 nM	3/3	0/9

As a blank, each scFv also met three strains without target: over library AAYL50, 18% of these pairings were detected, typically at 15 µM and seldom below 970 nM. For each scFv, signals with the empty controls are counted beside the result. For reference, the parent read 4.4 nM as the reference entry and 48 nM as a member of this library.

The measurements come from Engelhart et al. 2022 (doi:10.1038/s41597-022-01779-4) through the FLAb antibody collection.